Results published in US20200283493A1, “Novel Insulin Derivatives and the Medical Uses Hereof” (Novo Nordisk A/S, priority 2015, published 2020).

Experiments:
[1] = ThT fibrillation assay, physical stability of zinc-free preparations; format: physicochemical; conditions: zinc-free Formulation A (2.0% glycerol), 37° C., 960 rpm
Method: (§1) Zinc-free insulin analogues were dissolved in aqueous solution, which in the final formulation contained 0.6 mM insulin analogue, 16 mM m-cresol, 16 mM phenol, and appropriate amounts of nicotinamide and glycerol, and the pH was adjusted to 7.3-7.5 (measured at room temperature) using 1 N hydrochloric acid/1 N NaOH. Water was added to the final volume and the solution was sterile-filtered through a 0.2 μm filter. The formulation was filled into 2 ml vials and sealed using crimp caps.
Samples were prepared freshly before each assay.
The temperature was adjusted to 37° C. […] Fluorescence measurement was done using excitation through a 444 nm filter and measurement of emission through a 485 nm filter. […] Between each measurement, the plate was shaken and heated as described.

[2] = Chemical stability: purity by reverse phase chromatography (UPLC); format: physicochemical; conditions: zinc-free formulation
Method: as §1
Elution was performed with a mobile phase consisting of the following: A: 10% (v/v) acetonitrile, 100 mM di-ammonium hydrogen phosphate, pH 3.6, and B: 80% (v/v) acetonitrile. […] Each analogue preparation was incubated at 5, 25 and 37° C. in 2 ml vials. At defined times the insulin related impurities of the preparations was measured.

[3] = Subcutaneous PK profile in Sprague Dawley rats; format: in vivo; conditions: sc 25 nmol/kg, +3Zn/hex formulation
Method: In order to compare the profiles of the insulin derivatives of the invention to the profiles of the analogues of the prior art, the analogues of the invention are tested in this protocol using zinc-free formulations, and the analogues of the prior art are tested using 3 zinc ions per hexamer. This is to obtain the fastest PK profiles obtainable in clinically useful (i.e. chemically and physically stable) formulations.
Male Sprague-Dawley rats, ˜400 grams, are used for these experiments. The rats are not fasted prior to testing. During the three hours study period, the rats have free access to water but not to food. […] The rats are dosed subcutaneously (25 nmol/kg; 600 μM formulation of insulin derivative) in the neck using a NovoPen Echo® mounted with a Softfine® 12 mm needle. Plasma concentrations of glucose and insulin derivatives are quantified using a BIOSEN analyser and immuno assays/LCMS analysis, respectively.

[4] = Chemical stability: HMWP by size exclusion chromatography; format: physicochemical; conditions: zinc-free formulation
Method: as §1
Each analogue preparation was incubated at 5, 25 and 37° C. in 2 ml vials.

## B29K(N(eps)hexadecanedioyl-Glu-2×OEG), desB30 Human Insulin [PA 1]
[1]
  Lag time (h) in ThT assay: 1 h
[2]; 2 weeks 37° C.
  Purity delta-value from start, 2 weeks 37° C.: (−8.5%)
  Purity, 2 weeks 37° C.: 86.0%
[2]; 5 weeks 37° C.
  Purity delta-value from start, 5 weeks 37° C.: (−19.2%)
  Purity, 5 weeks 37° C.: 75.3%
[2]; start
  Purity, Start: 94.5%
[3]
  Tmax: 1 h
[4]; 2 weeks 37° C.
  HMWP content, 2 weeks 37° C.: 3.7%
  HMWP delta-value from start, 2 weeks 37° C.: (+1.5%)
[4]; 5 weeks 37° C.
  HMWP content, 5 weeks 37° C.: 5.7%
  HMWP delta-value from start, 5 weeks 37° C.: (+3.5%)
[4]; start
  HMWP content, Start: 2.2%
